Two compounds from patent US10774052B2, “Heteroaryl compounds and uses thereof” (Celgene CAR LLC, priority 2013, dated 2020) can be followed below.

By UniProt entry, the sequences of proteins in these tests, tags left out. Residues count along the entry.
UniProt P22455, 460-802: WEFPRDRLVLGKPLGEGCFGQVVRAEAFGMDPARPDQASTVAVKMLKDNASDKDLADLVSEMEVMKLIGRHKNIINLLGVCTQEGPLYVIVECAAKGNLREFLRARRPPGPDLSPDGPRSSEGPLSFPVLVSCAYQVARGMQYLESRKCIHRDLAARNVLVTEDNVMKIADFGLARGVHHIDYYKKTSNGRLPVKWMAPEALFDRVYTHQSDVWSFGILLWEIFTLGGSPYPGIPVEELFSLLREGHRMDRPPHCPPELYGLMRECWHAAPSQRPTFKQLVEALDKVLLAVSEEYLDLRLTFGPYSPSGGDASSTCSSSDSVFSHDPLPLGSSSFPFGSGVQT

Molecules are shown by their SMILES.

The target in this experiment is FGFR4 intact protein (Homo sapiens (Human), UniProt P22455).
[1] abbreviates: intact FGFR4 (Invitrogen), 10-fold excess, 60 minutes.

As to `C=CC(=O)NC1CCCCC1Nc1ncc2c(n1)N(C)C(=O)N(c1c(Cl)c(OC)cc(OC)c1Cl)C2` (racemic) [Compound I-19], where the note is “method a: FGFR4 from SignalChem, 10-fold excess of compound, 60 min”, the “MS FGFR4 (mass modification)” value is recorded as “E (mass modification of ≥70%)”.

For the compound `C=CC(=O)Nc1ccccc1Nc1ncc2c(n1)N(Cc1cccc(NC(=O)CC)c1)C(=O)N(c1c(Cl)c(OC)cc(OC)c1Cl)C2` [Compound I-1], under setting [1], the “centroid mass shift of FGFR4” value is 589 Da and the “percentage of modified protein (mass shift / molecular weight)” value is given as 87%.
